Target: SARS-CoV-2 PLpro (Severe acute respiratory syndrome coronavirus 2, UniProt P0DTD1)
Settings: 1–100 µM famotidine; 4 nM PLpro, 10 µM ISG15, 1 h

NC(N)=Nc1nc(CSCCC(N)=NS(N)(=O)=O)cs1 [Famotidine]
reduction of the amount of ISG15 cleaved by PLpro: does not significantly reduce the amount of ISG15 cleaved

Reference: paper PMC8021898 (Frontiers in Pharmacology, 2021)
